What was measured:
MIN6 cells = experiment: Insulin secretion assay of mouse insulinoma cells (MIN6) upon glucose stimulation; format: cell-based; details: 16.8 mM glucose, 100 nM to 500 nM peptide, FIGS. 15A-C, 16A
Description: FIGS. 15A-15C: Insulin secretion assay of mouse insulinoma cells (MIN6) upon 16.8 mM glucose stimulation. Cells were incubated with 0.1-0.5 μM synthetic peptides for FIG. 15A: rat CGRPα, FIG. 15B: rat CGRPβ and FIG. 15C: rat Substance P, n=4, means±S.E.M, **p<0.01, *p<0.05, Student's t test. FIG. 15D: Serum levels of CGRP measured by ELISA in blood samples from WT and TRPV1 mutants at 3 and 24 months, n=7, means±S.E.M. a, ns and b, p<0.05. FIG. 15E: Respiratory exchange ratio (RER) analysis and oxygen consumption FIG. 15F: of 23 months old male WT animals treated with CGRP8-37 or vehicle control, n=10, means±S.E.M.,**p<0.01, *p<0.05, Student's t test.
FIGS. 16A-16C illustrate insulin secretion and inflammation of the TRPV1 mutant mice. FIG. 16A: Insulin secretion assay of mouse insulinoma cells (MIN6) upon 16.8 mM glucose stimulation with 0.1-0.5 μM synthetic human CGRPα. FIG. 16B: Insulin secretion assay (MIN6) upon 16.8 mM glucose and exendin 4 stimulation. Cells were incubated with 0.1-0.5 μM synthetic peptides for h CGRPα, rat CGRPβ and rat Substance P, n=4, means±S.E.M, **p<0.01, *p<0.05, Student's t test. FIG. 16C: qPCR analysis of chemokines and pro-inflammatory genes at 24 months in brain, quadriceps muscle, gonadal fat and pancreas at 24 months (n=5, means±SEM, n.s., Student's t test). […]

[1] = test system: G1 Fab binding to human α-CGRP on the chip; experiment: Epitope mapping of antibody G1 by peptide competition using Biacore; details: 10 uM peptide in 50 nM G1 Fab (2000:1 mol peptide/Fab); FIG. 6
Excerpt: N-biotinylated human α-CGRP was captured on SA sensor chip. […] Y axis represents percentage of binding blocked by the presence of the competing peptide compared with the binding in the absence of the competing peptide.
To determine the epitope on human α-CGRP that is recognized by antibody G1, Biacore assays described above were used. Human α-CGRP was purchased as an N-biotinylated version to enable its high-affinity capture via SA sensor chips. […] All these peptides are amidated at the C-terminus.

1-37 (WT): human α-CGRP 1-37, SEQ ID NO: 15, ACDTATCVTHRLAGLLSRSGGVVKNNFVPTNVGSKAF, C-terminally amidated
effect on glucose-stimulated insulin release (MIN6 cells): significant blockade of the insulin response, albeit to a lesser extent
percentage of binding of G1 Fab to human α-CGRP blocked by competing peptide [1]: 100%

— patent US20170037117A1, “COMPOSITIONS AND METHODS FOR TREATING METABOLIC DISORDERS” (Salk Institute for Biological Studies, priority 2014, published 2017)
